The source made the active and inactive calls.
Assays:
Mu-type opioid receptor = Mu-type opioid receptor (Homo sapiens, UniProt P35372); assay type: functional, cell-based;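 note: U2OS cells with beta-arrestin recruitment to OPRM1 by beta-gal complementation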
Phospholipase D1 [1] = target: T1, Phospholipase D1 (Homo sapiens, UniProt Q13393); test: PLD1 purified enzyme concentration response. [Related pubchem assays (depositor defined):AID588854]; assay type: functional
T1 sequence (Q13393 whole entry): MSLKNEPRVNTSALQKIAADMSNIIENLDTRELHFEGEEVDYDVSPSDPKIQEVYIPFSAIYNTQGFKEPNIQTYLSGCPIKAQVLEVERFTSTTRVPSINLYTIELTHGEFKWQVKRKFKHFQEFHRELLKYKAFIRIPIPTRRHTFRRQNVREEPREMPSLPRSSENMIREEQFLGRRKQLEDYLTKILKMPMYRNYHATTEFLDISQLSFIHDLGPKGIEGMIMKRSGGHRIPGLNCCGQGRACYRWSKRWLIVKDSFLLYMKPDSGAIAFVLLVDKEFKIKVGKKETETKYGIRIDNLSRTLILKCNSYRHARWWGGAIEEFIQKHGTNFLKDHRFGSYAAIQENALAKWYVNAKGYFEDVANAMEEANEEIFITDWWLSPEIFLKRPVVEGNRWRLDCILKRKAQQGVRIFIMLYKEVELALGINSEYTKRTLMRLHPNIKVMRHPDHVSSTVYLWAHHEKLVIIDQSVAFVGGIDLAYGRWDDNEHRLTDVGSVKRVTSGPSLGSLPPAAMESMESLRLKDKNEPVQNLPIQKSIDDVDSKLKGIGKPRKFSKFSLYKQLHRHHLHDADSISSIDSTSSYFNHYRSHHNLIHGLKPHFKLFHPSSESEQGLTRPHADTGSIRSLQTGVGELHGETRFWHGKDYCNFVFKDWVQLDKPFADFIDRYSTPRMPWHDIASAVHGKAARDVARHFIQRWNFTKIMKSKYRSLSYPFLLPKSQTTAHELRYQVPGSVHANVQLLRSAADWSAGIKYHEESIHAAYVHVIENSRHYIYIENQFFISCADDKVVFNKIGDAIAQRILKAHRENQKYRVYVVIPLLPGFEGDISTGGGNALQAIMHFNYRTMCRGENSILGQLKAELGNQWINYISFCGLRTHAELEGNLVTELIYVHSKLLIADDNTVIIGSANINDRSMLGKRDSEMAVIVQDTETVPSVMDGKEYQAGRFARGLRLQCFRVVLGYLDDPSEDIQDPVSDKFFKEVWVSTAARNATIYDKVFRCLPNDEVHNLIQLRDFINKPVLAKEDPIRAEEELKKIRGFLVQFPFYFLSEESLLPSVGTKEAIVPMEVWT

Sequences of proteins named here, by UniProt entry; tags and fusion partners are left off.
UniProt P35372, whole entry: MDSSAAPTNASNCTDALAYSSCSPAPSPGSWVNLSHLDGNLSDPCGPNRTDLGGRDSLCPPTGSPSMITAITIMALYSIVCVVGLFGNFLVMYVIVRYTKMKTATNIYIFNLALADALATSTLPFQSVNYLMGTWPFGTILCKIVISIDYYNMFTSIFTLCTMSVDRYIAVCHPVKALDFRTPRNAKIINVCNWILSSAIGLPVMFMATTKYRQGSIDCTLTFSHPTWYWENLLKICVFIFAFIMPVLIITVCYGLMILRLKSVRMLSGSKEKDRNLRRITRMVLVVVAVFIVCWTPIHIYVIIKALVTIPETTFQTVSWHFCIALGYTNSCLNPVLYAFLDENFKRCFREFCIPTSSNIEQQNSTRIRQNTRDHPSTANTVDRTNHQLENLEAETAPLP

Phospholipase D1 [2] = target: T1, Phospholipase D1; test: cellular phospholipase D1 inhibition IC50 – cell-based, dose response (AID 602151); assay type: functional;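 note: cellular PLD1 assay in Calu-1 cells stimulated with PMA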

SMILES | EC50 (Mu-type opioid receptor) | IC50 (Phospholipase D1 [1]) | IC50 (Phospholipase D1 [2])
CN1C[C@H](C(=O)N[C@]2(C)O[C@@]3(O)[C@@H]4CCCN4C(=O)[C@H](Cc4ccccc4)N3C2=O)CC2c3cccc4[nH]cc(c34)C[C@H]21 (stereo partly drawn) | inactive: 92400 nM | – | –
C[C@@H](CN1CCC2(CC1)C(=O)NCN2c1ccccc1)NC(=O)c1ccc2ccccc2c1 | – | active: 690 nM | active: 35 nM
